The values that follow come from ChEMBL document CHEMBL1138606, “The discovery of tropane derivatives as nociceptin receptor ligands for the management of cough and anxiety” (Bioorg Med Chem Lett, 2009).

Protein sequences, listed by entry. Tags and fused reporters are not part of them. Lines headed by an entry give the natural chain unless they say otherwise; changes in a name come on top.
UniProt P41146: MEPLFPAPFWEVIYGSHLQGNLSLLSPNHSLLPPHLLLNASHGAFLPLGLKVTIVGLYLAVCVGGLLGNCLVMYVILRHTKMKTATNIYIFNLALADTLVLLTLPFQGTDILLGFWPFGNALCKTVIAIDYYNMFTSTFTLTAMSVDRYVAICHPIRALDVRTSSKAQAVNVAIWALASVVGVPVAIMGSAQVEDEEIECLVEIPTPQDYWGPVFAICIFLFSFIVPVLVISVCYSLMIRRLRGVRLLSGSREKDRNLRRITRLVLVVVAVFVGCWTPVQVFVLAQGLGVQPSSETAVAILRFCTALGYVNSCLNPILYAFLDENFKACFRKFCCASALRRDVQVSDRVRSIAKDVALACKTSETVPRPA
UniProt P41143, whole entry, looked up: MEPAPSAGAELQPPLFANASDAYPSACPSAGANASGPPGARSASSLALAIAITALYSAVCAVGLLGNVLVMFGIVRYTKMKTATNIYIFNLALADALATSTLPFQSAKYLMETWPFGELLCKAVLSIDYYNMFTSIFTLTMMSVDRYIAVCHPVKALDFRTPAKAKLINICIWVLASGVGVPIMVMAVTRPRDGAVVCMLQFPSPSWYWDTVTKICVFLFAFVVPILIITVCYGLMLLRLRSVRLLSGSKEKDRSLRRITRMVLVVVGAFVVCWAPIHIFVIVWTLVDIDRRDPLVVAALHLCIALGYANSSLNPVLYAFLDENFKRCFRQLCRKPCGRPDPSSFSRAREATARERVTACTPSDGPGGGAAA
UniProt P41145: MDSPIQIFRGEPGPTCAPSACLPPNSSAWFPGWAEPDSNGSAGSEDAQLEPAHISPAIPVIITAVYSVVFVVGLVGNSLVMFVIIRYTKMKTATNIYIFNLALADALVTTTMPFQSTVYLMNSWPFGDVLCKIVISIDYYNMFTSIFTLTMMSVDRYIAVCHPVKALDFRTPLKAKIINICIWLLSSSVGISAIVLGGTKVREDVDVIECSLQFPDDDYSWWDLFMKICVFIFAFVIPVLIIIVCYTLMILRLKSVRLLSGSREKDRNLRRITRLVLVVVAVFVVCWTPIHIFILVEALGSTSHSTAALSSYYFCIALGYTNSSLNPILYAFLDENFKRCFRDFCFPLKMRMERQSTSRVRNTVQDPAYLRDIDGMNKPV

Assay [1] concerns the target T1, Nociceptin receptor (Homo sapiens, UniProt P41146). The assay is described as follows: Agonist activity at human NOP assessed as stimulation of GDP-induced [35S]GTPgammaS binding.
For assay [2], the target named is Delta-type opioid receptor (Homo sapiens, UniProt P41143). The settings on record: cho.
The target in assay [3] is T1, Nociceptin receptor. The settings on record: cho.
The target in assay [4] is Kappa-type opioid receptor (Homo sapiens, UniProt P41145). The settings on record: cho.

Regarding `NC(=O)C1(c2ccccc2)CC2CCC(C1)N2C(c1ccccc1Cl)c1ccccc1Cl` (centres undefined), the concentration giving a half-maximal response (EC50) on Nociceptin receptor [1] came to 6 nM. The figures for the inhibitory constant (Ki) (in assay [2]; on Nociceptin receptor [3]; in assay [4]) were 2330 nM, 1.7 nM and 268 nM, respectively.
